# Key:
# Caco-2 cell monolayers = test: Absorptive (AP to BL) transport across Caco-2 cell monolayers
# [1] = 10% fetal calf serum
# CHO/pSPORT cells = test: Non-specific uptake in vector-transfected control CHO/pSPORT cells
# Experimental: CHO Cell Uptake Studies CHO cells transiently transfected with hSMVT (CHO/hSMVT) were washed twice with 25 mM uptake buffer, containing 25 mM Hepes/Tris pH 7.5, 140 mM NaCl, 5.4 mM KCl, 1.8 CaCl2, 0.8 mM MgSO4 and 5 mM glucose, approximately 48 hours post-transfection. Subsequently, the cells were incubated with the permeant at 37° C. for 10 minutes. Uptake was stopped by washing the cells thrice with ice-cold buffer. Non-specific uptake was measured in parallel experiments with the control pSPORT vector-transfected CHO cells. Finally, the cells were solubilized by 0.1% v/v Triton X-100, and 0.6 ml was used for scintillation counting. […] Bovine serum albumin was used as the standard.
# CHO Cell Uptake Studies CHO cells transiently transfected with hSMVT were washed twice with 25 mM uptake buffer, containing 25 mM Hepes/Tris pH 7.5, 140 mM NaCl, 5.4 mM KCl, 1.8 CaCl2, 0.8 mM MgSO4 and 5 mM glucose. […] Non-specific uptake was measured in parallel experiments with the control pSPORT vector-transfected CHO cells. […] From the remaining volume, 10 μl of solution was taken from each well and protein concentration was determined using the Bio-Rad reagent according to the manufacturer's instructions. […]
# CHO Cell Uptake Studies. […] Non-specific uptake was measured in parallel experiments with the control pSPORT vector-transfected CHO cells. […]
substance,measurement,setting,value
N-acetyl-D-Lys:(ε-biotin)-D-Arg-D-Arg-D-Arg-D-Gln-D-Arg-D-Arg-D-Lys-D-Lys-D-Arg-NH2 [RI-K(biotin)-Tat9],"Pc, carrier-mediated component",Caco-2 cell monolayers; Caco-2,3.22 ×10⁻⁶ cm/s
same,"Pm, passive permeability",Caco-2 cell monolayers; Caco-2,0.57 ×10⁻⁶ cm/s
same,increase in absorptive permeability over RI-K-Tat9,"Caco-2 cell monolayers; Caco-2, at 1 μM",3.2 fold
same,resistance to proteolysis,[1],highly resistant to proteolysis
same,uptake in CHO/pSPORT cells,CHO/pSPORT cells,~33.83 pmol/mg protein

# — patent US7740882B2, “Enhanced oral and transcompartmental delivery of therapeutic or diagnostic agents” (priority 2001, dated 2010)
